For this assay, the target named is PTlinker-SpyCatcher003-His. Kind of assay: depletion of SpyTag003-GA (2.0 mg/g carrier) from E. coli lysate supernatant, SDS-PAGE densitometry; SpyCatcher003-LX-1000EP (blocking control without SpyCatcher003 14.9).

These results are taken from patent US20240317895A1.

Consider “SpyTag003-Gslinker-GA-His (from UniProt P07662 30-720) (enzyme)”, for which the Immobilization Efficiency (%) was found to be 26.1%.
